# Binding of CDR-mutated scFvs to a peptide of the spike HR2 region

Source: Engelhart et al. 2022 (doi:10.1038/s41597-022-01779-4), MIT Lincoln Laboratory and A-Alpha Bio; data file from the FLAb repository.

Binding partner: SARS-CoV-2 spike HR2 peptide, sequence PDVDLGDISGINAS.

Each scFv is VL, a (GGGGS)3 linker, VH, as in the parent Ab-91, and differs from it in the CDRs of the heavy chain only.
VL: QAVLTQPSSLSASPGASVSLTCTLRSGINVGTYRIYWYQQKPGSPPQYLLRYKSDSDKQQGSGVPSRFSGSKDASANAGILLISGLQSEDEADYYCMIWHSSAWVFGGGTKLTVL
VH: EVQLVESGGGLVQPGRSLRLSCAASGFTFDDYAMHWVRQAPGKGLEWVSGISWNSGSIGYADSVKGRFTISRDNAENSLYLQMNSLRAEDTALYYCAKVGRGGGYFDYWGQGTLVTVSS

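The parent was found by panning a naive human phage display library on the peptide. In library AAYL51, one, two or three CDR residues were substituted; doubles and triples were drawn at random. The scFvs were displayed on barcoded MATa yeast, the peptide on MATalpha yeast. Mating (16 h, 30 °C) was followed by selection of diploids and sequencing of their barcodes. The ratio of observed to expected reads was calibrated, replicate by replicate, on BCL2-family standards whose Kd was known from biolayer interferometry. Each pool was mated in three replicate cultures.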

Changes read parent residue, position, new residue, counted from the first residue of the VH shown. Values are log10 of the apparent Kd in nM; lower means stronger binding. Where no diploid with the target was found in that replicate, the entry reads "nd": below detection, most likely a poor binder, though not proof of it. Background: pairings of library AAYL51 with three empty control strains gave a value in 21% of cases (median 4.54, 5th percentile 3.26). Values in that range, when seen in few replicates, are hard to tell from nonspecific mating. For each scFv, signals with the empty controls are counted beside the result, with their mean in brackets.

changes	replicates, log10 nM	empty controls
S52V/Y105R/D107V	nd nd nd	0/9
T28S/G50P/G100H	nd nd nd	1/9 (4.09)
I51A/G100F	nd 3.80 nd	3/9 (4.49)
N54S/S55L/Y60W	5.00 5.70 nd	7/9 (4.82)
D30I/R101I/D107F	nd nd nd	0/9
A33G/H35G/G102M	nd nd 3.35	2/9 (3.29)
F29Q/G50V/N54G	4.44 nd nd	1/9 (4.74)
H35D/S52M/Y105H	nd nd nd	0/9
F29D/S55G/I58K	1.87 1.83 1.63	4/9 (4.73)
G59P/Y60C/D107A	nd 4.24 nd	1/9 (3.93)
D31Q/H35F	nd nd nd	0/9
D31G/G50W/K65M	nd nd nd	0/9
S63K/K65W	3.52 3.18 2.75	1/9 (3.79)
S57K/K65Q/G104A	5.09 6.80 5.77	6/9 (4.73)
W53R/V99I/G100I	nd nd nd	0/9
F29N/G103H/Y105R	5.03 4.83 nd	5/9 (5.30)
I51R/S63R/G103C	nd nd nd	0/9
T28S/N54M/S55Q	2.05 2.31 nd	1/9 (4.08)
D30G/D62C/G102A	4.26 nd 3.58	0/9
I58P/A61P/D107F	nd nd nd	2/9 (5.09)
I51F/G59I/V99L	nd nd nd	1/9 (4.91)
D30Y/R101C/G103T	nd 5.33 4.48	5/9 (4.95)
N54T/S57I/G103S	5.39 3.61 nd	1/9 (4.78)
D30A/G103F/Y108F	nd nd nd	0/9
I51Y/Y105C	nd 3.95 nd	1/9 (4.86)
D30C/H35L/G102I	nd nd nd	1/9 (2.90)
G50H/S55V/R101F	nd nd nd	1/9 (3.16)
F29K/D30F/I51V	nd 5.66 4.54	4/9 (5.11)
F29H/G104E	4.69 6.48 4.71	7/9 (4.84)
S57R/S63M/Y105G	nd 4.33 4.73	0/9
G102M/D107V	nd nd nd	1/9 (2.58)
S55P/G59T	5.02 5.80 2.91	2/9 (4.76)
Y32D/G50D/Y105T	nd nd nd	0/9
A61Q/V64D/Y108A	4.38 6.02 4.30	5/9 (4.50)
G56Y/Y105W	3.58 4.11 2.35	4/9 (5.23)
D30Q/G100C/F106S	0.83 0.66 0.15	3/9 (5.04)

Excerpt, the first 3 entries:

changes	replicates, log10 nM	empty controls
S52V/Y105R/D107V	nd nd nd	0/9
T28S/G50P/G100H	nd nd nd	1/9 (4.09)
I51A/G100F	nd 3.80 nd	3/9 (4.49)